Earlier results in publication PMC11390321 (Cancer chemotherapy and pharmacology, 2024).

Settings: tumor-bearing mice, orally administered; cited from earlier work

Q: With `C[C@@H]1COCCN1c1cc(-c2ccnn2C)c2ccnc(-c3ccn[nH]3)c2n1` [elimusertib] as the molecule, how does the “bone marrow exposure relative to plasma” value read?
A: 2.65 fold
